The structures appear in SMILES notation. pIC50: −log10 of the molar value.

This assay addresses T1, Protein kinase C epsilon type (Homo sapiens, UniProt Q02156).
T1 sequence (Q02156 whole entry): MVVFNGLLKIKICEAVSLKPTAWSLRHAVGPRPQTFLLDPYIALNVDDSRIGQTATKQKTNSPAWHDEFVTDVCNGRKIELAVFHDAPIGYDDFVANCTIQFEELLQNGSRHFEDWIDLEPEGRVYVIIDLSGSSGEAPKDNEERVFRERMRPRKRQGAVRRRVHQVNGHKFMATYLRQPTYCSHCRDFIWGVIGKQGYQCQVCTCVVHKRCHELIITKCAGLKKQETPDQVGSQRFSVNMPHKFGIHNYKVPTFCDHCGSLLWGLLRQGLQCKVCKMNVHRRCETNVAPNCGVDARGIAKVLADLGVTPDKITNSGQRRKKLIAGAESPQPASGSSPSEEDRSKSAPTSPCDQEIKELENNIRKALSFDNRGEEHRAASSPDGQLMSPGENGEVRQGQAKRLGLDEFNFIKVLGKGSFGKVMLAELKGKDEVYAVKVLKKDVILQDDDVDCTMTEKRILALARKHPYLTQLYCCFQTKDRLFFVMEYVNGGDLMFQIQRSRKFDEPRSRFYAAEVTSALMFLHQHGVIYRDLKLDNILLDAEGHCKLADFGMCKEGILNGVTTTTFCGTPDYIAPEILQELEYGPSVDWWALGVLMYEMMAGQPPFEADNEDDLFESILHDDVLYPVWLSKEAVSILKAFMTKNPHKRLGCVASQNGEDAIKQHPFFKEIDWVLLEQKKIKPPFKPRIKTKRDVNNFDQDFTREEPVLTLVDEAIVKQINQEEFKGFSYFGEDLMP
As to the kind of experiment: Inhibition of protein kinase C epsilon.

`O=C(NC1CNCCCC1OC(=O)c1cc(O)c(C(=O)c2c(O)cccc2C(=O)O)c(O)c1)c1ccc(O)cc1` (single isomer, unassigned; (-)): the negative logarithm of the IC50 (pIC50) is 7.70.

The pIC50 is −log10 of the IC50, conventionally taken in molar units. The low end stands for a large IC50, the high end for a small IC50.

The record behind these values is ChEMBL document CHEMBL1129127, “Potent and selective PKC inhibitory 5-membered ring analogs of balanol with replacement of the carboxamide moiety” (Bioorg Med Chem Lett, 1996).
